In patent US20100286027A1, “ANTI-BACTERIAL COMPOSITIONS” (priority 2008, published 2010):

Test system: L. monocytogenes
Assay: Bacterial growth inhibition (FIG. 15)
Assay type: cell-based, Listeria monocytogenes
Conditions: FIG. 15 Panel C
Source text: Nod1 inhibited E. coli growth (Panel B) and L. monocytogenes growth was inhibited by Nod1, Nod2, Nod2 3020insC and CIAS1 (Panel C).

## CIAS1: LRR protein named only in the FIG. 15 legend
  L. monocytogenes growth: inhibited
